# PubChem BioAssay AID720717 (ICCB-Longwood Screening Facility, Harvard Medical School, 2013)
# The list shows a part of the results, in another mix than the full data. Some results for these compounds are left out of this collection, so the calls shown say nothing about other tests. Calls of active or inactive are those of the source.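 Rule for the calls: active = both repeat wells score below -2 in polarization z-score versus plate sample wells, excluding overly bright wells; inactive = the rest.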
# System: LANA (ORF73) N-terminal peptide binding to nucleosomes, Human herpesvirus 8
# Assay: inhibitors of KSHV LANA-nucleosome binding, primary screen, biochemical, fluorescence polarization, FITC-LANA1-23, chicken nucleosomes (AID 720717)
# Settings: FITC-LANA1-23 / chicken nucleosome fluorescence polarization; stronger effect = lower value
# Summary of the method: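 Test system: purified chicken nucleosomes with FITC-labelled LANA N-terminal peptide (1-23); Input: 240 nM purified chicken nucleosomes (480 nM peptide binding sites), final; Medium: TEN-BT buffer, pH 7.5; Timing: 10–45 min, room temperature; Technique: fluorescence polarization, 480 nm excitation, 535 nm parallel and perpendicular emission; Replication: duplicates.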
row,Compound,z-score
1,CN1C2CCC1CC(OC(=O)C(O)(c1ccccc1)c1ccccc1)C2 (configuration not stated),inactive: -0.391
2,COc1ccc(OC)c(C=C(C#N)C#N)c1,inactive: -9.89
